Reference: patent publication US20050020854A1, “Alkyl(en)ylglycerinether carboxylic acids” (priority 2001, published 2005)

Test system: mucous membrane (HET-CAM)
Test: Mucous membrane compatibility, in vitro HET-CAM test, reaction time method
Protocol: Mucous membrane compatibility was evaluated by the in vitro HET-CAM test using the reaction time method (conc. 5% in 2×-distilled water, pH=6).

Q: For “mono-C12-glycerol ether+4EO ether carboxylic acid [Example 2]”, which Evaluation is on record?
A: The Evaluation was “Slightly irritating”.
